How the values were obtained:
[1] = target: T1, Human EP2 (Homo sapiens, UniProt P43116); experiment: Receptor affinity, tritium-labeled PGE2 binding to membranes of transfected COS-7 cells
T1 construct: expressed in transfected cells; host or cells: COS-7
Method: (§1) PG receptor affinity of compound F and compound J of the present invention was evaluated. Compound F used was one synthesized in Example 9, and compound J was prepared by separating and purifying the compound synthesized in Example 14 with a column (the same preparations were used in the following Examples). COS-7 cells were transfected with the genes of mouse EP4, human EP1-4 or human IP to overexpress the receptor and then the cell membranes were collected. As a labeled ligand, tritium-labeled PGE2 was used for EPs; tritium-labeled iloprost, for IP. The dissociation constant Kd value was obtained and inhibition constant Ki value of each test compound was determined in a conventional method. As a reference control, PGE2 was used for EPs; beraprost sodium (BPS), for IP.

Sequences of proteins named here, by UniProt entry; tags and fusion partners are left off. A change or cut given only in a name is not applied to a line headed by its entry.
UniProt P43116: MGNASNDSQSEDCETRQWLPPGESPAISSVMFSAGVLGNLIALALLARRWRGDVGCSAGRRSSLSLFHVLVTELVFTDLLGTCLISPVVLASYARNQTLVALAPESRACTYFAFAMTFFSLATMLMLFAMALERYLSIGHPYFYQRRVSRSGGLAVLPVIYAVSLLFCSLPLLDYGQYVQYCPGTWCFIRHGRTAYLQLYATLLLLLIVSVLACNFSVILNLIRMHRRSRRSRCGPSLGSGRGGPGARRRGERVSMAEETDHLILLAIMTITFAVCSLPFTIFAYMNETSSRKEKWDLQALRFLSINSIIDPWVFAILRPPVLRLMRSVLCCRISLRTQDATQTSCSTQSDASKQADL
UniProt P32240: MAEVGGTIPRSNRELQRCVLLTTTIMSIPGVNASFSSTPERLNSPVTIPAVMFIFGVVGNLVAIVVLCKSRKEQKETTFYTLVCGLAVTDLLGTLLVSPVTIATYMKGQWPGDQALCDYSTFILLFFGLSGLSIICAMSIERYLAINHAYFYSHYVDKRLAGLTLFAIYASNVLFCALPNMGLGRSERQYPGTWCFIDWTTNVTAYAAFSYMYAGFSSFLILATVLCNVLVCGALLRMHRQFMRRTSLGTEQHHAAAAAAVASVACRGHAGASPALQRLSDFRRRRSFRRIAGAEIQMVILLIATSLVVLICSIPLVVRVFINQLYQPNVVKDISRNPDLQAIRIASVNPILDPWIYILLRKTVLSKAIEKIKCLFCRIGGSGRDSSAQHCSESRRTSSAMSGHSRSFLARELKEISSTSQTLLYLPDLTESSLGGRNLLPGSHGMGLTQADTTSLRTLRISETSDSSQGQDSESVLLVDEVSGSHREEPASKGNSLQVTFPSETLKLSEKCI

[2] = target: T2, Mouse EP4 (Mus musculus, UniProt P32240); experiment: as above
T2 construct: expressed in transfected cells; host or cells: COS-7
Method: as §1

With `CCCCC[C@H](O)/C=C/[C@H]1[C@H](O)CC(=O)[C@@H]1C/C=C\CCCC(=O)O` [PGE2, reference compound] the Ki [1] was 6 nM and the Ki [2] was 2.6 nM.

Source: EP2545917B1, “NOVEL EP4 AGONIST” (Kaken Pharmaceutical Co., Ltd., priority 2010, dated 2011)
